We go through 2 compounds from article PMC8510601, “Discovery of benzamide-hydroxypyridinone hybrids as potent multi-targeting agents for the treatment of Alzheimer's disease” (Journal of Enzyme Inhibition and Medicinal Chemistry, 2021).

By UniProt entry, the sequences of proteins in these tests, tags left out.
UniProt P21397, whole entry: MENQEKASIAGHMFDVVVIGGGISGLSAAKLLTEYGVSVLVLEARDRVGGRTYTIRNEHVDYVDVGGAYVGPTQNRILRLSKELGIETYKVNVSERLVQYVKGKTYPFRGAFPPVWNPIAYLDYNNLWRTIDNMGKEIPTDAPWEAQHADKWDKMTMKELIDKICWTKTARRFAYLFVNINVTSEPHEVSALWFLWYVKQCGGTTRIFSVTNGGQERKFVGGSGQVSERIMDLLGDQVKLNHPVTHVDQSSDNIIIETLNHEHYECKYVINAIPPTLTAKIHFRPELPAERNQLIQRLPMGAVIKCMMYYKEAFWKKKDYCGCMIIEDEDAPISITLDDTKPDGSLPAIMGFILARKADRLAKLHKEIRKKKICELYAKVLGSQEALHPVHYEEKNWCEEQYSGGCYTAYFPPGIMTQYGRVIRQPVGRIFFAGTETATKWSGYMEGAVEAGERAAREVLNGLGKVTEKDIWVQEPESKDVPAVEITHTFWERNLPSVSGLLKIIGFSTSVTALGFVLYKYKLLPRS

The conditions of data set [1]: literature value, footnote b; cited from earlier work.
In a further data set the target is MAO-A (Homo sapiens, UniProt P21397). As to the kind of experiment: Human MAO-A inhibitory assay. Format: biochemical. The settings on record: read-out: IC50 ± SEM MAO-A.

Turning to `Cn1c(=O)c2[nH]cnc2n(C)c1=O` [Theophylline], in data set [1], the Pe is reported as 1.07 ± 0.18^b 10^–6 cm/s.
What is called IC50 is the concentration that gives 50% inhibition. Take `C#CCN(C)Cc1ccccc1` [Pargyline, reference compound]: on MAO-A, the concentration for half-maximal inhibition (IC50) was determined as 4.189 ± 0.005 µM.
